# Measured values as given in ChEMBL document CHEMBL4251654, “Structure-based design of human immuno- and constitutive proteasomes inhibitors” (Eur J Med Chem, 2018).
# Chains of the proteins cited; added tags and fusions are not shown. Lines headed by an entry give the natural chain unless they say otherwise; changes in a name come on top.
# UniProt P49721: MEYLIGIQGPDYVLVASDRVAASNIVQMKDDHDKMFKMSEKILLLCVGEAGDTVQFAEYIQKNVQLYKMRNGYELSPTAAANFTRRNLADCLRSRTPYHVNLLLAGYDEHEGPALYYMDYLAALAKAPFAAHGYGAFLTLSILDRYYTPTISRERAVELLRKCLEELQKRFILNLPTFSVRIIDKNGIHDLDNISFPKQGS
# Target: Proteasome Macropain subunit (Homo sapiens) (UniProt P49721)
# Assay: Activation of human 20S constitutive proteasome beta-2 at 50 uM using BocLRR-AMC as substrate incubated for 15 mins measured for 45 mins by fluorescence assay relative to control
compound,measurement,value
CC(C)(C)OC(=O)N[C@@H](Cc1ccc(OCc2ccccc2)cc1)C(=O)N[C@@H](CC(N)=O)C(=O)N[C@@H](C[C@]1(O)C(=O)Nc2ccccc21)C(=O)NCc1ccccc1,fold change (FC),1.4
